Assay results as given in patent US9204630B2, “Capsule formulation” (Syngenta Participations AG, priority 2005, dated 2015).

Experiment: Screen of EC formulations for substances that photoprotect emamectin benzoate
Format: physicochemical
Design: key: #1 represents no improvement; #3 represents those photoprotectants that conferred a significant improvement in photostability
Settings: performance of the photostabiliser relative to the non-photostabilised EC; 2% w/w emamectin benzoate EC, photoprotectant to insecticide 1:1; deposits on glass irradiated in Suntest, HPLC-MS
Experimental: The photoprotectant to be screened was either dissolved or dispersed in a simple Solvesso 200 based EC formulation containing 2% w/w emamectin benzoate, 10% w/w Soprophor BSU and 3% w/w phenyl sulfonate calx. The weight ratio of photoprotectant to insecticide was 1:1.
The ECs were diluted in water to the typical field application rate of emamectin benzoate, 10 g ai/ha at a spray volume of 200 l/ha. 2 μl droplets were applied to clean glass microscope slides and allowed to dry prior to being irradiated in an Atlas XLS+ Suntest artificial sunlight simulator, which employs a filtered xenon light source providing a spectral energy distribution similar to natural outdoor exposure. After irradiation, deposits were removed from the glass slides by a solvent wash and quantified by high performance liquid chromatography (HPLC) with mass-spectrometric (MS) detection.

## 1-[[3-methyl-4-[(3-methylphenol)azo]phenyl]azo]-2-naphthalenol [Example 1L]
  Screen Result: 3
